Target: T1, GST-METTL3 fusion protein (human)
T1 construct: METTL3, human; 'coding regions of human genes METTL3 and TRIM21' inserted into pGEX-4T-1; Vector pGEX-4T-1; source: E. coli BL21, purified
Assay: pull-down; purified His-TRIM21 incubated with purified GST or GST-METTL3 overnight at 4 °C, captured on glutathione-sepharose beads, immunoblot
Details: both partners purified

binding result: binds
B1: purified His-TRIM21 (enzyme, human, UniProt P19474 1-475, looked up)
chain: MASAARLTMMWEEVTCPICLDPFVEPVSIECGHSFCQECISQVGKGGGSVCPVCRQRFLLKNLRPNRQLANMVNNLKEISQEAREGTQGERCAVHGERLHLFCEKDGKALCWVCAQSRKHRDHAMVPLEEAAQEYQEKLQVALGELRRKQELAEKLEVEIAIKRADWKKTVETQKSRIHAEFVQQKNFLVEEEQRQLQELEKDEREQLRILGEKEAKLAQQSQALQELISELDRRCHSSALELLQEVIIVLERSESWNLKDLDITSPELRSVCHVPGLKKMLRTCAVHITLDPDTANPWLILSEDRRQVRLGDTQQSIPGNEERFDSYPMVLGAQHFHSGKHYWEVDVTGKEAWDLGVCRDSVRRKGHFLLSSKSGFWTIWLWNKQKYEAGTYPQTPLHLQVPPCQVGIFLDYEAGMVSFYNITDHGSLIYSFSECAFTGPLRPFFSPGFNDGGKNTAPLTLCPLNIGSQGSTDY
notes: TRIM21, human; 'coding regions of human genes METTL3 and TRIM21' inserted into pET-28a; Vector pET-28a; source: E. coli BL21, purified
